Ki and EC50 data for 20 compounds are collected here from patent US7935722B2 (Eli Lilly and Company, priority 2005, dated 2011).

The chains behind the UniProt entries cited, without tags or fusion partners. Where a name states a change or a piece, a line headed by the entry shows the natural chain unless it says otherwise.
UniProt P10275: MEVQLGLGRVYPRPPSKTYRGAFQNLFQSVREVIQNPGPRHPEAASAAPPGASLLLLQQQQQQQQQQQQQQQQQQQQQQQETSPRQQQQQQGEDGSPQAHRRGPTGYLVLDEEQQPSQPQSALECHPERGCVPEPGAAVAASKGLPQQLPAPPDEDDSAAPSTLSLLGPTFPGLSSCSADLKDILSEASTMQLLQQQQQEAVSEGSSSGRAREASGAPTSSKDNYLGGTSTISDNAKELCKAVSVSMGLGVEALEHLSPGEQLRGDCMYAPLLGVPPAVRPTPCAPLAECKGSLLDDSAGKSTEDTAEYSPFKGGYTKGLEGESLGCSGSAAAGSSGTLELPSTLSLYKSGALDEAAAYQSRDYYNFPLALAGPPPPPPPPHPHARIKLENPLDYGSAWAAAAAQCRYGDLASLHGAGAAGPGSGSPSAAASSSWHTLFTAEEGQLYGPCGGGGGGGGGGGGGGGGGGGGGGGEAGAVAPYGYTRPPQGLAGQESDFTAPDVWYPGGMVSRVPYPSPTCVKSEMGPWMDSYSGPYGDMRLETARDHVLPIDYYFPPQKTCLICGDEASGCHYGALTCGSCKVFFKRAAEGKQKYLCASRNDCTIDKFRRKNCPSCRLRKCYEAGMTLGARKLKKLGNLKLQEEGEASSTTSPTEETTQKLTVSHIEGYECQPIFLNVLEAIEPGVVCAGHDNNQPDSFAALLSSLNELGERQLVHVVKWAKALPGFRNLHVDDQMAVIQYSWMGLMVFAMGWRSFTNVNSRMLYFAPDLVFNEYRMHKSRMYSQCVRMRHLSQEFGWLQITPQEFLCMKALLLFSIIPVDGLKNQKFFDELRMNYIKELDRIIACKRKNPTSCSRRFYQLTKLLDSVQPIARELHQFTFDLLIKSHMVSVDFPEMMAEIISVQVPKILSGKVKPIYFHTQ

The Ki is a dissociation constant, usually derived from enzyme kinetics or from competition with a known ligand. In general, EC50 refers to the concentration needed to bring the measured effect to its halfway point.

Experiment [1] addresses human AR (androgen receptor) (Homo sapiens, UniProt P10275). Nature of the experiment: Steroid hormone nuclear receptor binding assay, AR binding. Conditions: read-out: AR binding Ki; average of n trials.
Experiment [2] has as its target human androgen receptor (AR) (Homo sapiens, UniProt P10275). The experiment is described as follows: C2C12 AR/ARE reporter assay. The class given is cell-based. The conditions noted are these: read-out: C2C12 EC50, average of n trials. For orientation: Reporter assays use an easily measured gene product as a stand-in for the process of interest.

For `Cc1ccc2c(c1)c1c(n2Cc2cccc(F)c2)CCC(NC(=O)C(C)C)C1` (centres unmarked) [Example 47], the Ki in experiment [1] turned out to be 12.1 nM. The EC50 in experiment [2] amounted to 24.1 nM. Consider `COc1ccc(Cn2c3c(c4cc(OC)ccc42)CC(NC(=O)C(C)C)CC3)cc1` (centres unmarked) [Example 74], for which, in experiment [1], the Ki was 859 nM. The EC50 in experiment [2] came out at 764 nM. For the compound `CC(C)C(=O)NC1CCc2c(c3cc(C#N)ccc3n2Cc2cccc(F)c2)C1` (centres unmarked) [Example 51, N-(6-cyano-9-(3-fluorobenzyl)-2,3,4,9-tetrahydro-1H-carbazol-3-yl)isobutyramide], in experiment [1], the Ki was 1.5 nM. For the same compound, the EC50 in experiment [2] stood at 0.6 nM. With `COc1ccc2c(c1)c1c(n2Cc2ccc(F)cc2)CCC(NC(=O)C(C)C)C1` (centres unmarked) [Example 80], the Ki in experiment [1] came to 98 nM. Further, in experiment [2], the EC50 turned out to be 108 nM. On the same counts, the results for `CC(C)C(=O)NC1CCc2c(c3ccc(Cl)cc3n2Cc2cccc(F)c2)C1` (centres unmarked) [Example 56] are 3.8 nM and 54 nM. On the same counts, the results for `CC(C)C(=O)NC1CCc2c(c3cc(Cl)ccc3n2Cc2cccc(C#N)c2)C1` (centres unmarked) [Example 24] are 8.2 nM and 305 nM. On the same counts, the results for `COc1cccc(Cn2c3c(c4cc(Cl)ccc42)CC(NC(=O)C(C)C)CC3)c1` (centres unmarked) [Example 23] are 4.3 nM and 157 nM. For `CC(C)C(=O)NC1CCc2c(c3cc(Cl)ccc3n2Cc2ccc(F)cc2)C1` (centres unmarked) [Example 25], the Ki in experiment [1] is 6 nM. Moreover, in experiment [2], the EC50 came to 121 nM.

For the compound `CC(C)C(=O)NC1CCc2c(c3cc(Cl)ccc3n2Cc2cccc(F)c2)C1` (centres unmarked) [Example 21], the Ki in experiment [1] came out at 2 nM. The EC50 in experiment [2] came out at 20.1 nM. On the same counts, the results for `CC(C)C(=O)NC1CCc2c(c3cc(Br)ccc3n2Cc2ccccc2Cl)C1` (centres unmarked) [Example 32] are 10.3 nM and 53.3 nM. On the same counts, the results for `COc1ccccc1Cn1c2c(c3cc(Br)ccc31)CC(NC(=O)C(C)C)CC2` (centres unmarked) [Example 34] are 24.9 nM and 185 nM.

Take `CC(C)C(=O)NC1CCc2c(c3cc(C#N)ccc3n2Cc2cccc([N+](=O)[O-])c2)C1` (centres unmarked) [Example 88, N-[6-cyano-9-(3-nitro-benzyl)2,3,4,9-tetrahydro-1H-carbazol-3-yl]-isobutyramide]: the Ki in experiment [1] is 4.4 nM. Moreover, the EC50 in experiment [2] turned out to be 24.3 nM. Turning to `CC(C)C(=O)NC1CCc2c(c3cc(F)ccc3n2Cc2ccccc2F)C1` (centres unmarked) [Example 4], in experiment [1], the Ki is 36.6 nM. For `COc1cccc(Cn2c3c(c4cc(F)ccc42)CC(NC(=O)C(C)C)CC3)c1` (centres unmarked) [Example 10], in experiment [1], the Ki was 31.9 nM. Further, the EC50 in experiment [2] amounted to 193 nM.

Consider `CC(C)C(=O)NC1CCc2c(c3cc(Cl)ccc3n2Cc2cc(F)cc(F)c2)C1` (centres unmarked) [Example 29], for which the Ki in experiment [1] stood at 2.4 nM. The EC50 in experiment [2] is 2.7 nM. On to `CC(C)C(=O)NC1CCc2c(c3cccc(F)c3n2Cc2cccc(F)c2)C1` (centres unmarked) [Example 58], for which the Ki in experiment [1] stood at 7.2 nM. Also, the EC50 in experiment [2] is 258 nM. On the same counts, the results for `COc1ccc2c(c1)c1c(n2Cc2ccccc2OC)CCC(NC(=O)C(C)C)C1` (centres unmarked) [Example 72] are 153 nM and 686 nM. Turning to `CC(C)C(=O)NC1CCc2c(c3cc(Br)ccc3n2Cc2ccccc2)C1` (centres unmarked) [Example 30], in experiment [1], the Ki was determined as 2.1 nM. The EC50 in experiment [2] turned out to be 3.1 nM. Taken in the same sequence, the figures for `CC(C)C(=O)NC1CCc2c(c3cc(Cl)ccc3n2Cc2ccccc2)C1` (centres unmarked) [Example 16] were 1.9 nM and 5.5 nM.

As to `COC(=O)c1cccc(Cn2c3c(c4cc(Cl)ccc42)CC(NC(=O)C(C)C)CC3)c1` (centres unmarked) [Example 84], in experiment [1], the Ki amounted to 19.7 nM.
